We go through five molecules from article PMC7203344, “Sirtuin 1 Inhibiting Thiocyanates (S1th)—A New Class of Isotype Selective Inhibitors of NAD^+ Dependent Lysine Deacetylases” (Frontiers in Oncology, 2020).

Protein sequences, listed by entry. Tags and fused reporters are not part of them. Residues count along the entry.
UniProt Q9NTG7, 118-395 limits assumed: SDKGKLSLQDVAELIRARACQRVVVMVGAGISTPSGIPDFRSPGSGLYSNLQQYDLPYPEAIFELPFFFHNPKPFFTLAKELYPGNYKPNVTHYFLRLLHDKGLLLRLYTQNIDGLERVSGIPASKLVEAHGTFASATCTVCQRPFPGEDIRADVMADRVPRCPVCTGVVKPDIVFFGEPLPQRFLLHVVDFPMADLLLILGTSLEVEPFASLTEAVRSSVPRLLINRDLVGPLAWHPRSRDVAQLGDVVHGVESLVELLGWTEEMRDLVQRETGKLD
UniProt Q8IXJ6, 56-356 limits assumed: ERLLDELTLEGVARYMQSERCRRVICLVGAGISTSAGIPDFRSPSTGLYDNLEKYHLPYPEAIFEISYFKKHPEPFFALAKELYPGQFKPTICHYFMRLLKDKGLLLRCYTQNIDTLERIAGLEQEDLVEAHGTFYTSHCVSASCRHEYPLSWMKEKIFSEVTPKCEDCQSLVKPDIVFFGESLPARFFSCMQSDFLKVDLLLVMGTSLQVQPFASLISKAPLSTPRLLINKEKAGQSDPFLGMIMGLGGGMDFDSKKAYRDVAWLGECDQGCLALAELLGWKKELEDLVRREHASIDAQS
UniProt Q96EB6, 134-747 limits assumed: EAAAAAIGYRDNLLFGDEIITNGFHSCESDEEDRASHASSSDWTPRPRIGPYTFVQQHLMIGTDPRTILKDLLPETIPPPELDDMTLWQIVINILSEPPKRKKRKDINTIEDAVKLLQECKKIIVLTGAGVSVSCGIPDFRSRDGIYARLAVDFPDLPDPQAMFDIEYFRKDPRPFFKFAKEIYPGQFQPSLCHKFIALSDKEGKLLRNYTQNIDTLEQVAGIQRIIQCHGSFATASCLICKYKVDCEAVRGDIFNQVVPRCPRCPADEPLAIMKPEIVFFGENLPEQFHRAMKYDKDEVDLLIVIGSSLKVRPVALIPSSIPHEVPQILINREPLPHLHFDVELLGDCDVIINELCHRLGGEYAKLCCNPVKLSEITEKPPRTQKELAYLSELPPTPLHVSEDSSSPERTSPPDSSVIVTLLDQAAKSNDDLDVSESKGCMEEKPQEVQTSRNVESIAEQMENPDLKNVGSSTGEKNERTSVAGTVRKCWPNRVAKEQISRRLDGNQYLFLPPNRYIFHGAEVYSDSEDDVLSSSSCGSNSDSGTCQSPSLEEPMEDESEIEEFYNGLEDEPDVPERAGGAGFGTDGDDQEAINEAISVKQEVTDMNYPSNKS

The structures appear in SMILES notation.

The target of the first test is human Sirt3 (Homo sapiens, UniProt Q9NTG7). Briefly: Homogeneous ZMAL-based fluorescence assay, Sirt3. As to conditions: 3rd round. As for the experimental part: (§1) Recombinant human Sirt5_37−310 was purchased readily in Tris Buffer [25 mM Tris, 100 mM NaCl, 5 mM DTT, 10% glycerol (v/v)] from Enzo Life Sciences (NY, USA). Human Sirt3_118−395 was expressed and purified as described previously ([54]). For expression of human Sirt1_134−747 and Sirt2_56−356 chemically competent cells of E. coli BL21 Star (DE3) were transformed with the expression vectors pET30S-hSirt1_134−747 or pET30S-hSirt2_56−356. Bacteria were grown at 37°C in 2×YT medium supplemented with 50 μg·mL^−1 of kanamycin to an OD600 of 0.6. Then isopropyl-β-D-1-thiogalactopyranoside (IPTG) was added to a final concentration of 1 mM to induce gene expression. After further cultivation at 20°C for 12 h, the cells were harvested by centrifugation for 15 min at 5,000 g. The cells were resuspended in lysis buffer [100 mM Tris/HCl buffer at pH 8.0, 150 mM NaCl and 10% (v/v) glycerol] and disrupted by ultrasonication (Branson Digital Sonifier 250) at 70% amplitude for 10 min (3 s working, 10 s pause). The crude extract was cleared by centrifugation at 100,000 g for 1 h, and the supernatant was loaded onto a Strep-Tactin Superflow cartridge (5 ml bed volume, IBA Lifescience, Germany). Target proteins were eluted with lysis buffer containing 5 mM D-Desthiobiotin (IBA Lifescience, Germany) and further separated by size-exclusion chromatography (Superdex S200 26/60, GE Healthcare, IL, USA) equilibrated in Tris/HCl buffer (20 mM, 150 mM NaCl, pH 8.0). Pure protein was concentrated by ultrafiltration, flash-frozen in liquid nitrogen and stored at −80°C until further use. Identity as well as purity were verified by SDS-PAGE ([55]) and protein concentration was determined by the bicinchoninic acid (BCA) method, using bovine serum albumin (BSA) as a standard ([56]). Deacetylase activity was confirmed to be NAD^+-dependent and could be inhibited with the physiological sirtuin inhibitor nicotinamide.
(§2) All compounds were tested in the trypsin-coupled high-throughput ZMAL-assay in black 96-well plates (OptiPlateTM−96F, black, 96 well, Pinch bar design, PerkinElmer, USA), using ZMAL (Z-Lys(acetyl)-AMC) as a substrate ([57]). Sirt1_134−747, Sirt2_56−356, and Sirt3_118−395 were mixed with 5 μL substrate (10.5 μM final assay concentration, diluted from a […] stock in DMSO) and 3 μL Inhibitor in DMSO at various concentrations or DMSO as a control [final DMSO concentration 5% (v/v)]. The mixture was supplemented with assay buffer (50 mM Tris/HCl, 137 mM NaCl, 2.7 mM KCl, 1 mM MgCL2, pH 8.0) to a total volume of 55 μL. Enzyme concentration was adjusted to get a final conversion of 20–30%. Addition of 5 μL NAD^+ (6 mM in assay buffer, final assay concentration of 500 μM) initiated the catalytic reaction and the plates were incubated at 37°C for 4 h with agitation at 140 rpm. The catalytic reaction was stopped by addition of 60 μL stop solution [50 mM Tris, 100 mM NaCl, 6.7% (V/V) DMSO, 5.5 U/μL trypsin, 8 μM nicotinamide, pH 8.0]. […] Afterwards, fluorescence intensity was measured in a microplate reader (λEx = 390 nm, λEm = 460 nm, BMG POLARstar Optima, BMG Labtech, Germany). An enzyme-free blank control and a 100% conversion control containing AMC instead of ZMAL were measured in addition. Inhibition was calculated in % in relation to a DMSO control after blank signal subtraction and IC50 values were determined using a non-linear regression to fit the dose-response curve with OriginPro 9G (OriginLab, USA). […]
With `N#CSc1cccc(NC(=O)CSc2nc3ccccc3o2)c1`, the “% inhibition @ 50 μM Sirt3” value is recorded as “n.i. (no inhibition (<10%))”.

`N#CSc1cccc(NC(=O)CSc2nc3ccccc3[nH]2)c1`: the “% inhibition @ 50 μM Sirt3” value is “n.i. (no inhibition (<10%))”.

On to `N#CSc1cccc(NC(=O)CSc2nc3ccccc3s2)c1`, for which the “% inhibition @ 50 μM Sirt3” value is given as “n.i. (no inhibition (<10%))”.

As to `CCC(=O)Nc1nnc(SCC(=O)Nc2cccc(SC#N)c2)s1`, the “% inhibition @ 50 μM Sirt3” value was “n.i. (no inhibition (<10%))”.

On to `N#CSc1cccc(NC(=O)CSc2nc[nH]n2)c1`, for which the “% inhibition @ 50 μM Sirt3” value is reported as “n.i. (no inhibition (<10%))”.

Another test concerns the target human Sirt2 (Homo sapiens, UniProt Q8IXJ6). Briefly: Homogeneous ZMAL-based fluorescence assay, Sirt2. As to conditions: 3rd round. As for the experimental part:
as §1, §2
As to `N#CSc1cccc(NC(=O)CSc2nc3ccccc3o2)c1`, the “% inhibition @ 50 μM Sirt2” value is “n.i. (no inhibition (<10%))”.

On to `N#CSc1cccc(NC(=O)CSc2nc3ccccc3[nH]2)c1`, for which the “% inhibition @ 50 μM Sirt2” value is reported as “n.i. (no inhibition (<10%))”.

Regarding `N#CSc1cccc(NC(=O)CSc2nc3ccccc3s2)c1`, the “% inhibition @ 50 μM Sirt2” value is recorded as “n.i.^* (no inhibition (<10%))”.

Consider `CCC(=O)Nc1nnc(SCC(=O)Nc2cccc(SC#N)c2)s1`, for which the “% inhibition @ 50 μM Sirt2” value was “n.i. (no inhibition (<10%))”.

Turning to `N#CSc1cccc(NC(=O)CSc2nc[nH]n2)c1`, the “% inhibition @ 50 μM Sirt2” value is given as “n.i. (no inhibition (<10%))”.

A further test deals with human Sirt1 (Homo sapiens, UniProt Q96EB6). In words: Homogeneous ZMAL-based fluorescence assay, Sirt1. The note with it: read-out: IC50 Sirt1; 3rd round. As for the experimental part:
as §1, §2
As usually defined, the IC50 is the concentration at which inhibition is half-maximal. As to `N#CSc1cccc(NC(=O)CSc2nc3ccccc3o2)c1`, the concentration for half-maximal inhibition (IC50) was 5.3 µM.

Regarding `N#CSc1cccc(NC(=O)CSc2nc3ccccc3[nH]2)c1`, the IC50 came to 5.1 µM.

On to `N#CSc1cccc(NC(=O)CSc2nc3ccccc3s2)c1`, for which the IC50 stood at 6.4 µM.

With `CCC(=O)Nc1nnc(SCC(=O)Nc2cccc(SC#N)c2)s1`, the 50% inhibitory concentration (IC50) is 2.8 µM.

In the case of `N#CSc1cccc(NC(=O)CSc2nc[nH]n2)c1`, the IC50 was found to be 9.4 µM.
